Laboratory results published in patent publication US20050250853A1, “Beta-tubulin inhibitors” (priority 1999, published 2005).
“Also recorded” adds a separate entry of the source.

What was measured:
β-tubulin [1] = test: Separation of soluble and polymerized tubulins, Western blot of β-tubulin; format: cell-based, human; settings: MDA-MB-231 cells, 30 μM, 24 h and 48 h, free tubulin fraction
Experimental: FIG. 2. Effects of CEU derivatives on microtubule depolymerization. Exponentially growing MDA-MB-231 cells were incubated in the absence or the presence of 30 μM of CEU derivatives including (A) 4-tBCEU, 4-iPCEU or 4-sBCEU for 24 and 48 h respectively; (B) 2-ECEU, 3-ECEU or 4-ECEU for 24 and 48 h; and (C) 4-tBEU, 4-iPEU, 4-sBEU, 4-tBCPU, CEU or 4-methoxyCEU for 48 h. Free tubulin and microtubule fractions were isolated and analyzed by Western blot. Data are representative of three different experiments.
Separation of soluble and polymerized tubulins from MDA-MB231 cells was carried out as described by Minotti et al. (14) with minor modifications. Briefly, after drug exposure, about 5×10^6 cells in 100-mm petri dishes were washed with PBS at 37° C. and harvested in 3 ml of PBS containing 0.4 μg/ml of taxol using a rubber policeman.
Cells were centrifuged and lysed using 250 μl of microtubule-stabilizing buffer (20 mM Tris-HCl, pH 6.8, 140 mM NaCl, 1 mM MgCl2, 2 mM EDTA, 0.5% Nonidet P-40 and 0.4 μg/ml taxol), and then transferred to 1.5 ml microcentrifuge tubes. […] Samples were analyzed by SDS-PAGE and immunoassay was performed as described below.
Samples (1×10^5 cells) were analyzed by 10% SDS-PAGE using the Laemmli system (15). […]

β-tubulin [2] = test: Competition with antimicrotubule agents for the site of β-tubulin alkylation; format: cell-based, human
Experimental: FIG. 6. Identification of the site of alkylation of β-tubulin by CEU: competition with antimicrotubule agents. […] Data are representative of three different experiments.
Samples (1×10^5 cells) were analyzed by 10% SDS-PAGE using the Laemmli system (15). Membranes were then incubated with PBSMT (PBS, pH 7.4, 5% fat-free dry milk and 0.1% Tween-20) for 1 h at room temperature, and then with 1:500 monoclonal anti-β-tubulin (clone TUB 2.1, Sigma) or 1:400 anti (clone no. SDL.3D10, Sigma) for 1 h. […] Membranes were washed with PBSMT and incubated with 1:2500 peroxidase-conjugated anti-mouse immunoglobulin (Amersham Canada, Oakville, Canada) in PBSMT for 30 min. Detection of the immunoblot was carried out with the ECL Western blotting detection reagent kit (Amersham Canada, Oakville, Canada).
The latter agents were used because they have well defined binding sites on β-tubulin (24-28) and because they were expected to inhibit alkylation by CEU if they shared a common binding site. […] These putative alkylation sites are two nucleophilic mercapto groups of cysteine residues at positions 239 and 354, respectively (25). To assess the possible alkylation of these mercapto residues by CEU, MDA-MB-231 cells were treated with 4-tBCEU in the presence of iodoacetamide, a specific thiol alkylating agent (31, 32). […] Similar experiments were carried out using EBI, a bifunctional alkylating agent that specifically induces cross-linking between Cys239 and Cys354 of β-tubulin (32).

## COc1cc2c(c(OC)c1OC)-c1ccc(OC)c(=O)cc1[C@@H](NC(C)=O)CC2 [Colchicine, reference compound]
β-tubulin [1]
  formation of modified β-tubulin (second immunoreactive band of lower Mr): no such band
β-tubulin [2]
  effect of competitor on formation of modified β-tubulin induced by CEU: prevented formation of the additional β-tubulin band; also recorded: prevented the formation of modified β-tubulin
  effect of competitor on formation of the 50-kDa radiolabeled band by [urea-14C]-4-tBCEU: inhibition of the formation of the 50-kDa radiolabeled band
  effect of pre-treatment on β-tubulin alteration induced by EBI: abrogated
